From US8546524B2, “Smoothened polypeptides and methods of use” (The United States of America, as represented by the …, priority 2006, dated 2013)

Assay: Solubility / precipitation in medium (stated)

| Sequence | solubility |
| --- | --- |
| VWFVVLTYAWHTSFKAL [SMOi2-14] | poor solubility |
| WFVVLTYAWHTSFKAL [SMOi2-15] | poor solubility |
